Test results published in PubChem BioAssay AID651800 (The Scripps Research Institute Molecular Screening Center, 2012).
The list shows a part of the results, in another mix than the full data. Active and inactive are the calls of the source. No stated cut-off is given here; in the data, active means inhibition above about 19%; inactive means the rest.

The compounds below were run on T-cell receptor (TCR) (assay: small molecules blocking TCR binding to CD3 – biochemical, fluorescence, TAMRA-labeled TCR probe, primary screen (AID 651800;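 further: recombinant mutant TCR 2C K166C tagged with TAMRA read by polarization; 0% = receptor in buffer alone and 100% = receptor with positive control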)). Conditions: at 9.4 µM, active compounds read high.
In the case of `O=C(O)C(=O)c1ccc(N(CCCl)CCCl)cc1`, the inhibition is reported as inactive: -2.48%. `O=C(Nc1ccncc1[N+](=O)[O-])c1ccc([N+](=O)[O-])cc1[N+](=O)[O-]` was tested, and the inhibition was inactive: -1.46%. `O=C(COc1ccccc1)OC1CN2CCC1CC2` (stereo unspecified) was tested, and the inhibition was inactive: 2.48%. `COC(=O)C1(C)COP(=O)(N2CCCC2)OC1` (stereo unspecified) was tested, and the inhibition was inactive: -0.68%. With `COP1(=S)c2c(C)nn(CCC#N)c2N=C(c2ccc(F)cc2)N1C` (stereo unspecified) the inhibition was inactive: 7.53%. In the case of `CCC(C)N(CC(C)C)C(=S)SC(NC(C)=O)C(Cl)(Cl)Cl` (stereo unspecified), the inhibition is reported as inactive: 4.31%. `O=C(OC1CN2CCC1CC2)c1cccc([N+](=O)[O-])c1` (stereo unspecified) was tested, and the inhibition was inactive: -0.28%. With `CCOC(=O)c1ccc(NC(=O)C(C)(CCl)SC)cc1` (stereo unspecified) the inhibition was inactive: 2.14%. With `COP(=O)(OC)N1CC1c1ccccc1` (stereo unspecified) the inhibition was inactive: 1.1%. `Cc1cc(SC(NC(=O)c2ccccc2)C(Cl)(Cl)Cl)nc(C(C)C)n1` (stereo unspecified) was tested, and the inhibition was inactive: 7.83%. With `CCCCOc1ccc(C(=O)NCC2(N3CCCCC3)CCCCC2)cc1OC` the inhibition was inactive: -3.02%. In the case of `CCOC(=O)Nc1ccc([As](=O)(O)O)c(O)c1`, the inhibition is reported as inactive: 0.91%. In the case of `O=C(O)C(O)c1ccc(N(CCCl)CCCl)cc1` (stereo unspecified), the inhibition is reported as inactive: 6.33%. In the case of `CC1CCNP(=O)(N(CCCl)CCCl)O1` (stereo unspecified), the inhibition is reported as inactive: 1.1%. With `O=P(Nc1ccccn1)(c1cccc2ccccc12)c1cccc2ccccc12` the inhibition was inactive: -2.8%. For `Cc1cc(SC(NC=O)C(Cl)(Cl)Cl)ncn1` (stereo unspecified), the inhibition was inactive: 2.08%. `O=[N+]([O-])c1ccc(Nc2ccc(Oc3ccc([N+](=O)[O-])cc3[N+](=O)[O-])cc2)c([N+](=O)[O-])c1` was tested, and the inhibition was inactive: 5.05%. For `CCOC(=O)Nc1cccc([As](=O)(O)O)c1`, the inhibition was inactive: -3.07%. `[N-]=[N+]=NC1CCCCC1NC(=O)c1cc([N+](=O)[O-])cc([N+](=O)[O-])c1` (stereo unspecified) was tested, and the inhibition was inactive: -0.53%. `Cc1ccc(OP(=O)(Nc2ccc([N+](=O)[O-])cn2)Oc2ccc(C)cc2)cc1` was tested, and the inhibition was inactive: 1.95%. For `Cc1ccc2nc3c(c(C)c2c1)CC(C(Cl)Cl)S3` (stereo unspecified), the inhibition was inactive: -6.74%. In the case of `O=[N+]([O-])c1ccc(-c2cc([N+](=O)[O-])c(O)c([N+](=O)[O-])c2)cc1`, the inhibition is reported as inactive: -4.08%. With `COc1cc(C(=O)NCC2(N3CCOCC3)CCCCC2)ccc1OCC(C)C` the inhibition was inactive: -0.71%. `O=[As](O)(c1ccc(O)cc1)c1ccccc1O` was tested, and the inhibition was inactive: 5.36%. `C[As](=O)(O)c1cccc(C(=O)O)c1` was tested, and the inhibition was inactive: 4.71%. `CC(C)NC(=O)NP(=O)(Oc1ccccc1)Oc1ccccc1` was tested, and the inhibition was inactive: -4.17%. In the case of `O=C(OC1CN2CCC1CC2)c1cccc2[nH]cnc12` (stereo unspecified), the inhibition is reported as inactive: -12.4%. In the case of `CCN(CC)C(=S)SC(NC=O)C(Cl)(Cl)Cl` (stereo unspecified), the inhibition is reported as inactive: 4.65%. `ClCCSc1nnc(-c2cccnc2)o1` was tested, and the inhibition was inactive: -1.45%. `COC(=O)C1(C)COP(=O)(N2CCCCCC2)OC1` (stereo unspecified) was tested, and the inhibition was inactive: 4.16%. `CC(C)c1ccc(OP(=O)(Nc2ccccn2)Oc2ccccc2F)cc1` (stereo unspecified) was tested, and the inhibition was inactive: -4.14%. With `O=P1(N(CCCl)CCCl)OCCCN1CCCl` (stereo unspecified) the inhibition was inactive: -1.78%. For `O=P1(N(CCCl)CCCl)Nc2ccccc2N1`, the inhibition was inactive: -4.4%. `COc1cc(I)ccc1[As](=O)(O)O` was tested, and the inhibition was inactive: -3.18%. For `COc1ccc2nc(NP(=O)(c3ccccc3)c3ccccc3)sc2c1`, the inhibition was inactive: 2.8%. With `Cc1c2c(nc3ccccc13)SC(C(Cl)Cl)C2` (stereo unspecified) the inhibition was inactive: 8.99%. `Cc1cc(=O)[nH]c(N[N+](=O)[O-])n1` was tested, and the inhibition was inactive: 6.26%. `O=C(OC1CN2CCC1CC2)C12CC3CC(CC(C3)C1)C2` (stereo unspecified) was tested, and the inhibition was inactive: -2.64%. For `O=[N+]([O-])c1cc(Oc2ccc([N+](=O)[O-])cc2C(F)(F)F)cc([N+](=O)[O-])c1`, the inhibition was inactive: 5.73%. With `COc1ccc(N/C(=N/P(=O)(N2CCOCC2)N2CCOCC2)N2CCOCC2)cc1` the inhibition was inactive: -4.64%. `Cc1cccc(OCC(=O)OC2CN3CCC2CC3)c1` (stereo unspecified) was tested, and the inhibition was inactive: -0.17%. `O=[As](O)(c1cccc(O)c1)c1cccc(O)c1` was tested, and the inhibition was inactive: 4.52%. In the case of `O=C(OC1CN2CCC1CC2)c1ccc(Cl)cc1` (stereo unspecified), the inhibition is reported as inactive: -8.21%. With `CS(=O)(=O)c1ccc(Cl)c(NC(=O)COC(=O)C(O)(c2ccccc2)c2ccccc2)c1` the inhibition was inactive: -5.8%. In the case of `O=[As](O)(O)c1cccnc1`, the inhibition is reported as inactive: 1.56%. In the case of `COc1cc(C(=O)NCC2(N3CCOCC3)CCCCC2)cc(Cl)c1OC(C)C`, the inhibition is reported as inactive: -9.33%. For `CCOP(=O)(Nc1cccc2ccccc12)OCC`, the inhibition was inactive: 4.91%. In the case of `COc1cc(C2NCCC3(OCCO3)C2(C)C)cc(OC)c1OC` (stereo unspecified), the inhibition is reported as inactive: 6.61%. With `Nc1cccc2c([As](=O)(O)O)cccc12` the inhibition was active: 56.5%. In the case of `Cc1ccc(NCCc2c([N+](=O)[O-])cc([N+](=O)[O-])cc2[N+](=O)[O-])cc1`, the inhibition is reported as inactive: 9.93%. `CCCOP(=S)(Nc1nc(N)cc(=O)[nH]1)OCCC` was tested, and the inhibition was inactive: 0.31%. In the case of `Nc1ccccc1[As](=O)(O)c1ccccc1`, the inhibition is reported as inactive: 4.65%. `O=C(O)COc1ccc([As](=O)(O)O)cc1[N+](=O)[O-]` was tested, and the inhibition was inactive: 0.74%. In the case of `O=P(Nc1nccs1)(Oc1ccccc1)Oc1ccccc1`, the inhibition is reported as inactive: -1.89%. In the case of `CCOP1(=S)c2c(C)nn(CCC#N)c2N=C(c2ccccc2F)N1C` (stereo unspecified), the inhibition is reported as inactive: 3.25%. `CN(C(=O)Cc1ccccc1)[C@@H]1CC[C@]2(CCCO2)C[C@H]1N1CCCC1` was tested, and the inhibition was inactive: -2.02%. With `CCOP1(=S)c2c(C)nn(CCC#N)c2N=C(c2ccc(F)cc2)N1C` (stereo unspecified) the inhibition was inactive: -1.11%. With `N#CCCN(C(=O)COC(=O)C(O)(c1ccccc1)c1ccccc1)c1ccc(F)cc1` the inhibition was inactive: 4.26%. For `CN(C(=O)Cc1ccc(Cl)c(Cl)c1)[C@H]1CC[C@@]2(CCCO2)C[C@@H]1N1CCCC1`, the inhibition was inactive: 1.1%. With `O=[N+]([O-])c1ccc2c(c1)nnn2O` the inhibition was inactive: 1.06%. With `CN(C)C(=O)c1cc([N+](=O)[O-])cc2c1-c1c(cc([N+](=O)[O-])cc1[N+](=O)[O-])C2=O` the inhibition was inactive: 4.93%. For `NC(=O)Nc1ccc([As](=O)(O)O)cc1`, the inhibition was inactive: 4.63%. For `CN(C)C1(CNC(=O)c2ccc(S(C)(=O)=O)cc2)CCCCC1`, the inhibition was inactive: 1.85%. `CCCC1OP(=O)(Nc2ccccc2)OCC1CC` (stereo unspecified) was tested, and the inhibition was inactive: -10.3%. In the case of `O=C(/C=C/c1ccccc1)OC1CN2CCC1CC2` (stereo unspecified), the inhibition is reported as inactive: 1.4%. In the case of `CC1CCC(C(C)C)C(OP(=O)(Nc2ccccn2)c2ccccc2)C1` (stereo unspecified), the inhibition is reported as inactive: -3.15%. For `Cc1ccc(C(=O)OC2CN3CCC2CC3)cc1` (stereo unspecified), the inhibition was inactive: 8.6%. For `Cc1nn(-c2ccccc2)c2c1P(=O)(N1CCOCC1)N(C)C(c1ccccc1)=N2` (stereo unspecified), the inhibition was inactive: 3.03%. In the case of `Nc1cccc([As](=O)(O)c2ccccc2)c1`, the inhibition is reported as inactive: 2.02%. In the case of `O=[As](O)(c1cccs1)c1cccs1`, the inhibition is reported as inactive: -11.5%. In the case of `Cc1ccc(OCC(=O)OC2CN3CCC2CC3)cc1` (stereo unspecified), the inhibition is reported as inactive: 9.35%. For `O=P1(Nc2ccc(Br)cn2)COc2ccccc2OC1`, the inhibition was inactive: 0.48%. In the case of `NS(=O)(=O)c1cccc(NC(=O)COC(=O)C(O)(c2ccccc2)c2ccccc2)c1`, the inhibition is reported as inactive: -5%. In the case of `Cc1ccc(S(=O)(=O)N(CCCN)CCCc2c(C)nc(N)[nH]c2=O)cc1`, the inhibition is reported as inactive: 2.06%. With `O=P1(Nc2ncccn2)COc2ccccc2OC1` the inhibition was inactive: -2.51%. In the case of `CC(C)(C)C(=O)NC(Sc1ncccn1)C(Cl)(Cl)Cl` (stereo unspecified), the inhibition is reported as inactive: -3.28%. For `O=P1(N(CCCl)CCCl)NCCC(C(F)(F)F)O1` (stereo unspecified), the inhibition was inactive: 6.41%. In the case of `Clc1n[nH]nc1-c1nn[nH][15n]1`, the inhibition is reported as inactive: 4.61%. With `CCOP(=O)(NC(=NC(C)c1ccccc1)NC(C)c1ccccc1)OCC` (stereo unspecified) the inhibition was inactive: 0.81%. With `O=P1(Nc2ccccn2)COc2ccccc2OC1` the inhibition was inactive: 7.87%. For `CCC1=CC2Cc3nc4ccc(Cl)cc4c(N)c3C(C1)C2` (stereo unspecified), the inhibition was inactive: -0.36%. In the case of `CCOP(=O)(Nc1ccc(C)cn1)OCC`, the inhibition is reported as inactive: 0.39%. For `CN(CCCl)Cc1cc(Cl)c(NC2=NCCN2)c(Cl)c1`, the inhibition was inactive: 3.17%. In the case of `CN(C(=O)Cc1ccc(Cl)c(Cl)c1)C1CCCC[C@@H]1N1CCCC1` (stereo partly specified), the inhibition is reported as inactive: -3.2%. `CC(C)/C=N\N=C(\N)N[N+](=O)[O-]` was tested, and the inhibition was inactive: -1.06%. `CN(C(=O)Cc1ccc(Cl)c(Cl)c1)[C@@H]1CCCC[C@H]1N1CCCC1` was tested, and the inhibition was inactive: -1.01%. With `CC1(CBr)Cn2c(nc3ccccc3c2=O)S1` (stereo unspecified) the inhibition was inactive: -9.56%. `COc1ccccc1CNC(=O)COC(=O)C(O)(c1ccccc1)c1ccccc1` was tested, and the inhibition was inactive: 0.61%. For `c1nnnn1CCn1cnnn1`, the inhibition was inactive: -0.17%. In the case of `CC(C)C(=O)NC(Sc1ccccc1)C(Cl)(Cl)Cl` (stereo unspecified), the inhibition is reported as inactive: -2.18%. `O=P(Nc1nccs1)(c1ccccc1)c1ccccc1` was tested, and the inhibition was inactive: 2.61%. With `C[C@H]1OP(=O)(Oc2ccccc2)[C@H](O)[C@H](O)[C@H]1N=[N+]=[N-]` (stereo partly specified) the inhibition was inactive: 4.76%. `O=P(Nc1nc2ccccc2s1)(c1ccccc1)c1ccccc1` was tested, and the inhibition was inactive: 6.71%. For `O=P(Nc1ccccn1)(c1ccc(Br)cc1)c1ccc(Br)cc1`, the inhibition was inactive: -0.49%. With `CN(C)C1(CNC(=O)c2ccc(Cl)c(S(N)(=O)=O)c2)CCCCC1` the inhibition was inactive: -1.82%. For `COc1ccc(N)c([N+](=O)[O-])c1[N+](=O)[O-]`, the inhibition was inactive: 0.06%. In the case of `Nc1ccc(CCCCOc2ccccc2)cc1`, the inhibition is reported as inactive: 11.8%. `O=C(OC1CN2CCC1CC2)c1cccc(Cl)c1` (stereo unspecified) was tested, and the inhibition was inactive: 0.03%. With `C(Cc1nn[nH]n1)Cc1nn[nH]n1` the inhibition was inactive: 9.24%. With `Nc1ccc([As](=O)(O)c2ccc([N+](=O)[O-])cc2)cc1` the inhibition was inactive: 5.57%. For `C/C(N)=N\P(=O)(OCc1ccccc1)OCc1ccccc1`, the inhibition was inactive: 1.39%.
